Assay results as given in patent publication USRE37793E1, “Method and composition for inhibiting bacteria” (Winthrop University Hospital, priority 1995, dated 2002).

Tests used:
[1] = system: Swiss-Webster female mice; conditions: mouse, in vivo
[2] = system: Swiss-Webster female mice; conditions: mouse, in vivo; remark: listed apart in the source

Substance: bismuth nitrate [Bi(NO3)3]
- Oral LD50 [1]: >357 mg/kg
- IP LD50 [2]: 53 ± 13 mg/kg
- LD50 ([2]; ip): 52±13 mgBi^3+/kg
